Laboratory results: ChEMBL document CHEMBL1130899, “Development of dual-acting agents for thromboxane receptor antagonism and thromboxane synthase inhibition. 2. Design, synthesis, and evaluation of a novel series of phenyl oxazole derivatives” (Bioorg Med Chem Lett, 1998)

Target: T1, Thromboxane A2 receptor (Homo sapiens, UniProt P21731)
T1 sequence (P21731 whole entry): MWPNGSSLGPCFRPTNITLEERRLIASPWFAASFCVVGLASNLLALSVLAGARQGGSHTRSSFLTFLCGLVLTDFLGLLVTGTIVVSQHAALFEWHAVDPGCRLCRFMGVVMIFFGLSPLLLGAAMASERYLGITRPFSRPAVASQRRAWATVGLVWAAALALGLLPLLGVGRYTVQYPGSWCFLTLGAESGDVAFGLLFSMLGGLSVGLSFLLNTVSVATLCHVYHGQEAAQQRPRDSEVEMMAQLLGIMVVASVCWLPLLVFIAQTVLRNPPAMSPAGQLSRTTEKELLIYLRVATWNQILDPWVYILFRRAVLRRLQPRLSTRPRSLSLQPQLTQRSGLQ
Assay: In vitro thromboxane receptor antagonism was determined using a human platelet binding assay

O=C(O)CCCC/C=C(/c1ccc(C2=N[C@@H](C(=O)NCCCCC3CCCCC3)CO2)cc1)c1cccnc1
Kd: 0.0516 µM
